Drawing on patent US9187490B2, “Dimeric IAP inhibitors” (TetraLogic Pharmaceuticals Corporation, priority 2005, dated 2015), this text covers Kd for 14 compounds.

The chains behind the UniProt entries cited, without tags or fusion partners. Residues count along the entry.
UniProt P98170, 241-356 limits assumed: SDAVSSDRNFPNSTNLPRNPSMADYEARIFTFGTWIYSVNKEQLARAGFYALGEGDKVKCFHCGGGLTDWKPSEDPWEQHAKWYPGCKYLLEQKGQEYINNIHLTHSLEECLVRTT

Read-outs that look alike come from different tables or passages of the source. Bounds are passed on as bounds.

This experiment deals with XIAP-BIR3 (Homo sapiens, UniProt P98170). Nature of the experiment: XIAP BIR-3 fluorescence polarization binding assay. In general terms: Fluorescence polarisation rises when a labelled molecule tumbles more slowly, as on binding a larger partner.
Setting [1] is: read-out: KD Range, 5 nM AbuRPF-K(5-Fam)-NH2, 40 nM XIAP-BIR3, 15 min RT, pH 7.5.
[2] abbreviates: read-out: KD Range, Example 7 series.

Turning to `CNC(C)C(=O)NC(C(=O)N1CCCC1Cc1cn(CCn2cc(CC3CCCN3C(=O)C(NC(=O)C(C)NC)C(C)O)c3ccccc32)c2ccccc12)C(C)O` (centres unmarked), the Kd (read-out: KD Range,, Example 10 series) is below 100 nM.

For the compound `CN[C@@H](C)C(=O)N[C@H](C(=O)N1CCC[C@H]1Cc1c2n(c3ccccc13)CCCn1c-2c(C[C@@H]2CCCN2C(=O)[C@@H](NC(=O)[C@H](C)NC)[C@@H](C)O)c2ccccc21)[C@@H](C)O`, the Kd under setting [1] is below 100 nM.

In the case of `CC[C@H](N)C(=O)N[C@H](C(=O)N1CCC[C@H]1Cc1c(-c2[nH]c3ccccc3c2C[C@@H]2CCCN2C(=O)[C@@H](NC(=O)[C@@H](N)CC)C(C)C)[nH]c2ccccc12)C(C)C`, under setting [2], the Kd was below 100 nM.

In the case of `CC[C@H](NC)C(=O)N[C@H](C(=O)N1CCC[C@H]1Cc1c(-c2[nH]c3ccccc3c2C[C@@H]2CCCN2C(=O)[C@@H](NC(=O)[C@H](CC)NC)C(C)C)[nH]c2ccccc12)C(C)C`, the dissociation constant (Kd) under setting [2] is below 100 nM.

On to `CN[C@@H](C)C(=O)N[C@H](C(=O)N1CCC[C@H]1Cc1c(-c2[nH]c3cc(F)ccc3c2C[C@@H]2CCCN2C(=O)[C@@H](NC(=O)[C@H](C)NC)[C@@H](C)O)[nH]c2cc(F)ccc12)[C@@H](C)O`, for which the Kd under setting [2] is below 100 nM.

Take `C=CC[C@H](NC(=O)[C@H](C)NC)C(=O)N1CCC[C@H]1Cc1c(-c2[nH]c3cc(F)ccc3c2C[C@@H]2CCCN2C(=O)[C@H](CC=C)NC(=O)[C@H](C)NC)[nH]c2cc(F)ccc12`: under setting [2], the Kd is below 100 nM.

For the compound `CN[C@@H](C)C(=O)N[C@H](C(=O)N1CCC[C@H]1Cc1c(-c2[nH]c3cc(F)ccc3c2C[C@@H]2CCCN2C(=O)[C@@H](NC(=O)[C@H](C)NC)[C@H](C)O)[nH]c2cc(F)ccc12)[C@H](C)O`, under setting [2], the Kd was below 100 nM.

As to `CN[C@@H](C)C(=O)N[C@H](C(=O)N1CCC[C@H]1Cc1c(-c2[nH]c3ccccc3c2C[C@@H]2CCCN2C(=O)[C@@H](NC(=O)[C@H](C)NC)C(C)C)[nH]c2ccccc12)C(C)C`, the Kd under setting [2] is below 100 nM.

As for `C[C@H](N)C(=O)N[C@H](C(=O)N1CCC[C@H]1Cc1c(-c2[nH]c3ccccc3c2C[C@@H]2CCCN2C(=O)[C@@H](NC(=O)[C@H](C)N)[C@@H](C)O)[nH]c2ccccc12)[C@@H](C)O`, the Kd under setting [2] was below 100 nM.

For `CN[C@@H](C)C(=O)N[C@H]1CCCC[C@H](NC(=O)[C@H](C)NC)C(=O)N2CCC[C@H]2Cc2c3n(c4cc(F)ccc24)CCn2c-3c(c3ccc(F)cc32)C[C@@H]2CCCN2C1=O`, under setting [1], the Kd is below 100 nM.

For the compound `CN[C@@H](C)C(=O)N[C@H](C(=O)N1CCC[C@H]1Cc1c(-c2[nH]c3cc(F)ccc3c2C[C@@H]2CCCN2C(=O)[C@@H](NC(=O)[C@H](C)N)C(C)C)[nH]c2cc(F)ccc12)C(C)C` [Entry 74], under setting [2], the Kd is below 100 nM.

As to `CN[C@@H](C)C(=O)N[C@H](C(=O)N1CCC[C@H]1Cc1c(CCCn2cc(C[C@@H]3CCCN3C(=O)[C@@H](NC(=O)[C@H](C)NC)[C@@H](C)O)c3ccccc32)oc2ccccc12)[C@@H](C)O`, under “read-out: KD Pανγε, series of the 11th table”, the Kd was above 10000 nM.

For `CN[C@@H](C)C(=O)N[C@H](C(=O)N1CCC[C@H]1Cc1c(-c2[nH]c3ccccc3c2C[C@@H]2CCCN2C(=O)[C@@H](NC(=O)[C@H](C)N)C(C)C)[nH]c2ccccc12)C(C)C`, the Kd under setting [2] was below 100 nM.

Regarding `CN[C@@H](C)C(=O)NCC(=O)N1CCC[C@H]1Cc1cn(CCOCCn2cc(C[C@@H]3CCCN3C(=O)CNC(=O)[C@H](C)NC)c3ccc(F)cc32)c2cc(F)ccc12`, the Kd (read-out: KD Range,, Example 9 series) was 1000 to 10000 nM.

By Kd is commonly meant the constant that tells how readily two partners part at equilibrium.
